iPSC survival up – enhancers of human iPSC single-cell survival; hiPSC single-cell survival, ATPlite luminescence; 100% = ROCK inhibitor wells, 0% = DMSO; survival enhancement, % at 20 µM; actives 0.044% (n = 360,000); AID 602274; in the data active = survival enhancement above about 18%;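 note: cells exposed to compounds for 16 hours before the ATP read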
Statin myotox sup – suppression of simvastatin myotoxicity. C2C12 myotubes + simvastatin, ATP luminescence, 48 h; scaled: DMSO 0, geranylgeraniol control 100. rescue of ATP level, % at 7.49 µM. actives 0.78% (n = 330,000);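 active = mean ATP rescue above about 67%, or every replicate alone reaching that limit, limit read from the data, passing the limit was not always enough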;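 note: myotubes were challenged with 10 µM simvastatin during compound exposure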
Yeast UUG start – modulators of yeast start codon fidelity, primary screen, whole organism, S. cerevisiae, single point, plate reader. S. cerevisiae UUG-firefly luciferase reporter, luminescence/redox ratio. activity score, % at 18.7 µM. actives 0.13% (n = 350,000);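 active = replicate mean at a twofold rise or more, about +100% in these data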;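 note: firefly luciferase made from a UUG start codon reports start codon fidelity; reporter light over untreated wells divided by growth signal over untreated wells; some hits fall short of that in this replicate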
FN deposition inh – fibronectin deposition inhibition | AH1F fibroblasts, Alexa488-fibronectin deposition fluorescence, overnight | inhibition, % at 12.6 µM | actives 0.086% (n = 350,000) | AID 743247;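 active = mean inhibition across replicates of 30% or more, regardless of how many single replicates reach that level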
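Material: AH1F fibroblasts assembling fluorescent fibronectin matrix; amount: 10000 AH1F cells/well; medium: DMEM, 2% serum; reagent: Alexa488-fibronectin, 24 nM final in well; dosing: single compound dose, delivered by pin transfer; incubation: 1 h adhesion, overnight exposure; detection: fluorescence after three HBSS washes, excitation 485 nm, emission 525 nm; measure: fibronectin deposition inhibition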
PGC1a acetyl inh – PGC1a acetylation modulation, inhibitor mode. U2OS PGC1a acetylation, AlphaScreen anti-acetyl-lysine; with virally co-expressed GCN5 acetyltransferase. inhibition, % at 15.6 µM. actives 0.17% (n = 350,000);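 active = every replicate shows inhibition of at least 40%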
Large screens that a line does not name were inactive. The list is not random: actives were taken first. Their share in the collection is about 0.91%.

C[C@@H]1CN([C@H](C)CO)C(=O)c2cc(NC(=O)Cc3ccccc3)ccc2O[C@@H](C)CCCCO[C@@H]1CN(C)S(=O)(=O)c1ccc(F)cc1	none (no result: iPSC survival up)
C[C@@H]1CCCCO[C@H](CN(C)C(=O)Nc2ccc(F)cc2)[C@H](C)CN([C@@H](C)CO)C(=O)c2cc(NC(=O)Cc3ccccc3)ccc2O1	Statin myotox sup 87 (no result: iPSC survival up, FN deposition inh)
C[C@@H]1CN([C@@H](C)CO)C(=O)c2cc(NC(=O)Cc3ccccc3)ccc2O[C@@H](C)CCCCO[C@@H]1CN(C)S(=O)(=O)c1ccc(F)cc1	Statin myotox sup 101 (no result: iPSC survival up)
C[C@H](CO)N1C[C@H](C)[C@@H](CN(C)S(=O)(=O)c2ccccc2)OCCCC[C@H](C)Oc2ccc(N(C)C)cc2C1=O	Statin myotox sup 92 (no result: iPSC survival up, FN deposition inh)
C[C@H]1CCCCO[C@H](CN(C)C(=O)Nc2ccc(F)cc2)[C@@H](C)CN([C@@H](C)CO)C(=O)c2cc(NC(=O)Cc3ccccc3)ccc2O1	none (no result: iPSC survival up, FN deposition inh)
CC(C)NC(=O)Nc1ccc2c(c1)C(=O)N([C@@H](C)CO)C[C@@H](C)[C@@H](CN(C)S(=O)(=O)c1ccccc1)OCCCC[C@H](C)O2	PGC1a acetyl inh 105 (no result: iPSC survival up, Statin myotox sup)
C[C@@H]1CN([C@H](C)CO)C(=O)c2cc(N(C)C)ccc2O[C@@H](C)CCCCO[C@@H]1CN(C)S(=O)(=O)c1ccccc1	none (no result: iPSC survival up, FN deposition inh)
O=C1CC(N2CCN(C/C=C/c3ccccc3)CC2)C(=O)N1Cc1ccc(N2CCCC2=O)cc1 (stereo unspecified)	Statin myotox sup 100
CCCCN(c1ccccc1)c1ncnc(N)c1[N+](=O)[O-]	PGC1a acetyl inh 52 (no result: FN deposition inh)
COc1ccc(-n2c(=S)[nH]c3c(oc4ccccc43)c2=O)cc1	none
Cc1ccc(-n2c(=O)[nH]c3c(oc4ccccc43)c2=O)cc1	FN deposition inh 31 (no result: Statin myotox sup, Yeast UUG start, PGC1a acetyl inh)
CCCNC(=O)Nc1ccc2c(c1)OC[C@@H](C)NC[C@H](C)[C@@H](OC)CN(C)C2=O	none (no result: iPSC survival up, Yeast UUG start, PGC1a acetyl inh)
CCN(C(=O)COC(=O)c1ccc2ccccc2n1)c1c(N)n(Cc2ccccc2)c(=O)[nH]c1=O	none (no result: FN deposition inh)
COCCCN(C(=O)c1ccc2ccccc2n1)c1c(N)n(Cc2ccccc2)c(=O)[nH]c1=O	FN deposition inh 37
Cc1ccc(S(=O)(=O)Nc2ccc3c(c2)C(=O)N([C@@H](C)CO)C[C@@H](C)[C@H](CN(C)Cc2ccc4c(c2)OCO4)O3)cc1	none (no result: iPSC survival up, FN deposition inh)
C[C@@H]1CCCCO[C@H](CN(C)S(=O)(=O)c2ccc(F)cc2)[C@H](C)CN([C@@H](C)CO)C(=O)c2cc(NS(=O)(=O)c3cccs3)ccc2O1	none (no result: iPSC survival up, Statin myotox sup, FN deposition inh)
COc1ccc(C(=O)N2CC=C(c3ccccc3)CC2)cc1S(=O)(=O)N1CCOCC1	Statin myotox sup 82 (no result: FN deposition inh)
COc1ccc(NC(=O)c2ccc(-c3ccccc3)cc2)cc1S(=O)(=O)N1CCOCC1	none (no result: Statin myotox sup, Yeast UUG start, FN deposition inh)
CCOC(=O)C1=NN(C(=O)COc2ccccc2)C(O)(c2ccc(Cl)cc2)C1 (stereo unspecified)	none (no result: Statin myotox sup, Yeast UUG start, PGC1a acetyl inh)
CCOC(=O)C1=NN(C(=O)Cc2ccccc2)C(O)(c2ccc(Cl)cc2)C1 (stereo unspecified)	Statin myotox sup 139
C[C@H]1CCCCO[C@@H](CN(C)Cc2ccc(C(F)(F)F)cc2)[C@@H](C)CN([C@@H](C)CO)C(=O)c2cc(NC(=O)Nc3ccc(C(F)(F)F)cc3)ccc2O1	none (no result: iPSC survival up, Statin myotox sup)
CC(C)(C)C(=O)COC(=O)CNC(=O)c1ccc(Oc2ccccc2)cc1	Statin myotox sup 141
COc1cccc(C(=O)NCC(=O)OCC(=O)C(C)(C)C)c1	none (no result: Statin myotox sup)
N#Cc1c([N+](=O)[O-])cc([N+](=O)[O-])cc1S(=O)(=O)Cc1ccccc1	FN deposition inh 45
CNC(=O)C[C@@H]1CC[C@H]2[C@@H](COc3ccc(NC(=O)NC4CCCC4)cc3C(=O)N2C)O1	none (no result: iPSC survival up)
Cc1cc(C)c2c(=O)[nH]n(C3CCCCCC3)c2n1	PGC1a acetyl inh 88 (no result: Statin myotox sup, Yeast UUG start)
Cc1ccc(CSCC(=O)Nc2ccc3c(c2)OCO3)cc1	Statin myotox sup 103
COC(=O)c1cn(CC(=O)N2CCOCC2)nn1	none (no result: iPSC survival up, Statin myotox sup, FN deposition inh)
O=C(O)c1ccccc1C(=O)N1CCN(c2cccc(Cl)c2)CC1	Statin myotox sup 84
COc1cc(Cl)ccc1NC(=O)COc1ccccc1C(=O)N1CCN(c2ccc(O)cc2)CC1	Statin myotox sup 122 (no result: FN deposition inh)
O=C(O)/C=C\C(=O)Nc1ccccc1C(=O)N1CCN(c2ccc(Cl)cc2)CC1	Statin myotox sup 88 (no result: FN deposition inh)
O=C(N/N=C/c1ccc[nH]1)c1ccccc1OCc1ccc(F)cc1	none (no result: Yeast UUG start)
CCOc1ccc(OCc2ccc(C(=O)NN=Cc3ccc[nH]3)cc2)cc1	PGC1a acetyl inh 47 (no result: FN deposition inh)
Cc1ccc(S(=O)(=O)C=CS(=O)(=O)c2ccc(C)cc2)cc1	none
O=S(=O)(/C=C/C=C/S(=O)(=O)c1ccccc1)c1ccccc1	FN deposition inh 34 (no result: Statin myotox sup, Yeast UUG start)
COc1cccc(CNC(=O)[C@@H]2CCCN2C(=O)[C@H]2CCCCN2C(=O)OC(C)(C)C)c1	none (no result: Statin myotox sup, Yeast UUG start, PGC1a acetyl inh)
Cc1nc(SCCC(=O)O)c2cc(-c3ccccc3)sc2n1	Statin myotox sup 67 (no result: PGC1a acetyl inh)
Cc1nc(N2CCOCC2)c2cc(-c3ccccc3)sc2n1	none (no result: FN deposition inh, PGC1a acetyl inh)
CN1C(=O)c2ccc(N(C)C)cc2C1=O	Statin myotox sup 109 (no result: FN deposition inh)
COc1ccc(OCCNS(=O)(=O)c2ccc3oc4ccccc4c3c2)cc1	Statin myotox sup 101
O=S(=O)(NCCOCC(F)(F)C(F)F)c1ccc2oc3ccccc3c2c1	none (no result: Statin myotox sup)
CC(C)NC(=O)N1[C@H](CO)[C@@H]2c3ccccc3N(C(=O)Nc3ccc(Cl)cc3)C[C@@H]21	none (no result: iPSC survival up, FN deposition inh)
CC1(C)OC2OC(C(=O)N/N=C/c3ccccc3F)C3OC(C)(C)OC3C2O1 (stereo unspecified)	Statin myotox sup 103
CC1(C)C(C=C(Cl)Cl)C1C(=O)N/N=C/c1ccccc1F (stereo unspecified)	none
COCCN1C(=O)c2ccc(C(=O)Nc3cccnc3)cc2C1=O	none
Cc1ccc(N2C(=O)c3ccc(C(=O)Nc4cccnc4)cc3C2=O)c(C)c1	Statin myotox sup 90
CC(C)C(OC(=O)CCC(=O)Nc1nccs1)C(=O)NC1CCCCC1 (stereo unspecified)	Statin myotox sup 99
COc1ccc(N(C(=O)c2ccco2)C(C(=O)NC2CCCCC2)c2cccs2)cc1OC (stereo unspecified)	none (no result: Yeast UUG start, FN deposition inh)
C#CC(=O)N(c1cc(OC)ccc1OC)C(C(=O)NC1CCCC1)c1cccs1 (stereo unspecified)	PGC1a acetyl inh 88 (no result: FN deposition inh)
C#CC(=O)N(c1ccc(OC)cc1OC)C(C(=O)NC1CCCC1)c1cccs1 (stereo unspecified)	PGC1a acetyl inh 95 (no result: Yeast UUG start)
CCC(=O)N(C)C[C@@H]1Oc2ncc(/C=C/c3ccccc3)cc2C(=O)N([C@H](C)CO)C[C@@H]1C	none (no result: iPSC survival up)
C[C@@H]1CN([C@H](C)CO)C(=O)Cc2cc(N(C)C)ccc2O[C@@H]1CN(C)C(=O)Nc1ccc(F)cc1	none (no result: iPSC survival up, FN deposition inh)
CC(NC(=O)COc1ccccc1)C(c1ccccc1)N1CCN(C)CC1 (stereo unspecified)	Statin myotox sup 90 (no result: FN deposition inh, PGC1a acetyl inh)

Screening data as filed in PubChem.
